According to ChEMBL document CHEMBL5512632, “Unlocking the potential of 1,4-naphthoquinones: A comprehensive review of their anticancer properties” (Eur J Med Chem, 2024):

Test system: DU-145
Assay: Cytotoxicity against human DU-145 cells assessed as reduction in cell growth incubated for 48 hrs by MTT assay

SMILES: Cc1c(C)c(O)c2c(c1O)C(=O)C=C(SCCCl)C2=O
- IC50: 0.71 µM
